Sequences of proteins named here, by UniProt entry; tags and fusion partners are left off. Residues count along the entry.
UniProt P22303, 32-614 limits assumed: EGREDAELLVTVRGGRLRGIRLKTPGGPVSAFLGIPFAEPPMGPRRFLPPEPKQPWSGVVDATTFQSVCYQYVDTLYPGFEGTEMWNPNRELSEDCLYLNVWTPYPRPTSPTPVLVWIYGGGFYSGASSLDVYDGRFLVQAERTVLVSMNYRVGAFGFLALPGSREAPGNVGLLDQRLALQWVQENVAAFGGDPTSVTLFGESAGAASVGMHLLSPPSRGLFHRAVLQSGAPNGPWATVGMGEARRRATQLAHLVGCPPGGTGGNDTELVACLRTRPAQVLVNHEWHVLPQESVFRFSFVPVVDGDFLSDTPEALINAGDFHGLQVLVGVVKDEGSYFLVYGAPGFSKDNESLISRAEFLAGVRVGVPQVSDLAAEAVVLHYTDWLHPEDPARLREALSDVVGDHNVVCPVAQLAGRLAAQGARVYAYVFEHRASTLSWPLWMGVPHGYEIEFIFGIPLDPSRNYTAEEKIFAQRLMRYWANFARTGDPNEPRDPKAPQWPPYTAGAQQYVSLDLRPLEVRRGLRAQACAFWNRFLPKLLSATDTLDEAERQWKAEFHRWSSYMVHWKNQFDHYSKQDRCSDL

According to ChEMBL document CHEMBL6087444, “Synthesis and Evaluation of Halogenated Pralidoximes in Reactivation of Organophosphate-Inhibited Cholinesterases” (2024):

What was measured:
[1] = Stability if the compound in PBS buffer at pH 7.4 at 1 mg/ml measured upto 8 hrs by UHPLC analysis; conditions: pH 7.4, 8 h
[2] = Stability if the compound in deionized water at 1 mg/ml measured upto 8 hrs by UHPLC analysis; conditions: buffer
[3] = Dissociation constant, pKa of the compound by spectrophotometric analysis
Acetylcholinesterase = Acetylcholinesterase (Homo sapiens, UniProt P22303); experiment: Inhibition of human recombinant AChE using acetylthiocholine iodide as substrate by Ellman's method

| Compound | Stability [1] | Stability [2] | pKa [3] | IC50 (Acetylcholinesterase) [µM] |
| --- | --- | --- | --- | --- |
| C[n+]1cc(Br)ccc1/C=N/O.[I-] | Stable | Stable | 7.9 | – |
| C[n+]1ccc(Cl)cc1/C=N/O.O=S(=O)([O-])C(F)(F)F | < 20% | – | – | – |
| C[n+]1ccc(F)cc1/C=N/O.O=S(=O)([O-])C(F)(F)F | 70% | – | – | – |
| C[n+]1cccc(Br)c1/C=N/O.[I-] | Unstable | Unstable | 8.1 | – |
| C[n+]1c(Cl)cccc1/C=N/O.O=S(=O)([O-])C(F)(F)F | Unstable | – | – | – |
| C[n+]1cccc(Cl)c1/C=N/O.[I-] | Unstable | Unstable | 7.97 | – |
| C[n+]1cc(F)ccc1/C=N/O.[I-] | Stable | Stable | 7.95 | – |
| C[n+]1cc(Cl)ccc1/C=N/O.[I-] | Stable | Stable | 7.8 | – |
| C[n+]1cccc(F)c1/C=N/O.[I-] | Unstable | Unstable | 8.04 | – |
| C[n+]1ccc(Br)cc1/C=N/O.O=S(=O)([O-])C(F)(F)F | < 20% | – | – | – |
| C[n+]1cc(Br)ccc1/C=N/O | – | – | – | 58.5 |
